Values of other authors as cited in patent US20090253721A1, “Combined treatment with radiation and an epidermal growth factor receptor kinase inhibitor” (priority 2004, published 2009).

Tested on: advanced H&N cancer
Conditions: cited from earlier work

cetuximab: EGFR monoclonal antibody
improvement in locoregional disease control (at 2 yrs, favoring the cetuximab arm, log rank p=0.02): 8%
improvement in overall survival (at 3 yrs, favoring the cetuximab arm, log rank p=0.02): 13%
median survival versus radiation alone (cetuximab with radiation): near doubling
